The chains behind the UniProt entries cited, without tags or fusion partners.
UniProt Q02293, whole entry: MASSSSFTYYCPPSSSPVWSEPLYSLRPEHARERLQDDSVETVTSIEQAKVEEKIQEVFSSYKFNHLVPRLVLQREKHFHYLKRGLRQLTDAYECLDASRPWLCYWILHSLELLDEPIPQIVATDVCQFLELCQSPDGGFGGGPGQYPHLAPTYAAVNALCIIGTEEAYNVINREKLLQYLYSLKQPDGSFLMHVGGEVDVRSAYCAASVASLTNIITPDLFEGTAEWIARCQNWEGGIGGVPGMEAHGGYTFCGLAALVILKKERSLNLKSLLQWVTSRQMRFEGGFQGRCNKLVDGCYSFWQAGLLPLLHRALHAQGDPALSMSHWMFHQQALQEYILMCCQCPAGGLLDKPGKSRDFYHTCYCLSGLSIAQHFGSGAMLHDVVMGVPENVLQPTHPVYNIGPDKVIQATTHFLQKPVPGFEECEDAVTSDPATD

In patent US20020115640A1, “Farnesyltransferase inhibitors” (priority 2000, published 2002):

Biological target: T1, farnesyltransferase (Rattus norvegicus, UniProt Q02293+Q04631)
T1 construct: The enzyme can be purified according to Cell, 62: 81-88 (1990), utilizing steps one, two, and three; from tissue; host or cells: rat brain
Experiment: Inhibition of farnesyltransferase (3H-farnesyldiphosphate / H-Ras filter assay)
Format: biochemical
Details: for inhibition at 0.1 µM: read-out: % Inhibition at 10^−7 M
Description: The ability of the compounds of the present invention to inhibit farnesyltransferase can be measured according to the method described in J. Biol. Chem., 266: 14603 (1991) or J. Biol. Chem., 270:660-664 (1995). Procedures for determination of the inhibition of farnesylation of the oncogene protein Ras are described in J. Biol. Chem., 266:15575-15578 (1991) and U.S. Pat. No. 5,245,061. Inhibition of rat brain farnesyltransferase can also be measured in vitro using an Amersham Life Science commercial scintillation proximity assay kit and substituting a biotin-K Ras B fragment (0.1 μM final concentration) for the biotin-lamin substrate provided by Amersham. The enzyme can be purified according to Cell, 62: 81-88 (1990), utilizing steps one, two, and three. […] The percent inhibition of the farnesylation caused by the compounds of the present invention (at 10^−6 M) compared to an uninhibited control sample can be evaluated in the same Amersham test system.
The mixture was brought to 37° C., treated with enzyme, incubated for 30 minutes, treated with 1 M HCl/ethanol (1 mL) to stop the reaction, stirred for 15 minutes at room temperature, diluted with ethanol (2 mL), filtered through a 2.5 cm glass microfiber filter (Whatman) with ethanol rinses (4×2 mL). The glass transferred to a scintillation vial and treated with scintillation fluid (5 mL). The radioisotope retained on the glass fiber filter was counted and reflected the activity of the enzyme.

Compound	inhibition at 0.1 µM [%]	inhibition at 0.01 µM (read-out: % Inhibition at 10^−8 M) [%]
Cn1cncc1C(OCc1c(-c2cccc(OC(F)(F)F)c2)cc(C#N)c(=O)n1C)c1ccc(C#N)cc1 (stereo not drawn) [Example 50, 6-(((4-cyanophenyl)(1-methyl-1H-imidazol-5-yl)methoxy)methyl)-1-methyl-2-oxo-5-(3-(trifluoromethoxy)phenyl)-1,2-dihydro-3-pyridinecarbonitrile]	100	
Cn1cncc1C(OCc1c(-c2cc(F)cc(F)c2)cc(C#N)c(=O)n1C)c1ccc(C#N)cc1 (stereo not drawn) [Example 49, 6-(((4-cyanophenyl)(1-methyl-1H-imidazol-5-yl)methoxy)methyl)-5-(3,5-difluorophenyl)-1-methyl-2-oxo-1,2-dihydro-3-pyridinecarbonitrile]	100	
Cn1cncc1C(OCc1ccc(C#N)nc1-c1cc(F)cc(F)c1)c1ccc(C#N)cc1 (stereo not drawn) [Example 90, 5-(((4-cyanophenyl)(1-methyl-1H-imidazol-5-yl)methoxy)methyl)-6-(3,5-difluorophenyl)pyridine-2-carbonitrile]		92
Cn1cncc1C(OCc1c(-c2cc(Cl)cc(Cl)c2)cc(C#N)c(=O)n1C)c1ccc(C#N)cc1 (stereo not drawn) [Example 51, 6-(((4-cyanophenyl)(1-methyl-1H-imidazol-5-yl)methoxy)methyl)-5-(3,5-dichlorophenyl)-1-methyl-2-oxo-1,2-dihydro-3-pyridinecarbonitrile]	100	
COc1cccc(-c2cc(C#N)ccc2COC(c2ccc(C#N)cc2)c2cncn2C)c1 (stereo not drawn) [Example 31, 6-(((4-cyanophenyl)(1-methyl-1H-imidazol-5-yl)methoxy)methyl)-3′-methoxy(1,1′-biphenyl)-3-carbonitrile]	> 97	
Cn1cncc1C(OCc1c(-c2cccc(Cl)c2)cc(C#N)c(=O)n1C)c1ccc(C#N)cc1 (stereo not drawn) [Example 48, 5-(3-chlorophenyl)-6-(((4-cyanophenyl)(1-methyl-1H-imidazol-5-yl)methoxy)methyl)-1-methyl-2-oxo-1,2-dihydro-3-pyridinecarbonitrile]	100	
